From patent US11753371B2 (BATTERJEE MEDICAL COLLEGE, priority 2021, dated 2023)

Amino acid sequences for entries named in this document (tags omitted). Residues count along the entry.
UniProt P00352, whole entry: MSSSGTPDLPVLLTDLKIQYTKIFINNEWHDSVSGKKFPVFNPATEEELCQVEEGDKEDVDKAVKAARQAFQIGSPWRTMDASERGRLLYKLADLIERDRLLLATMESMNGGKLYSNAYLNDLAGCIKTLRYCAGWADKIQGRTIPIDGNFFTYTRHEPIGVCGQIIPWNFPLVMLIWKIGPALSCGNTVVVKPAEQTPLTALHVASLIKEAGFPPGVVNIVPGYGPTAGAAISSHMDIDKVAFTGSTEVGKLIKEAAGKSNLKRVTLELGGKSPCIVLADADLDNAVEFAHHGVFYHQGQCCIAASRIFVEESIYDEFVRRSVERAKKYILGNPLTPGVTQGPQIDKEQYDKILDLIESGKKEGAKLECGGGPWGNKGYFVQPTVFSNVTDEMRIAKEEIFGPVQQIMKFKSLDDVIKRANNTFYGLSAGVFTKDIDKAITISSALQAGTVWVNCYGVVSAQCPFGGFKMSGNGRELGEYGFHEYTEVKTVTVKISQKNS
UniProt P05091, 18-517 limits assumed: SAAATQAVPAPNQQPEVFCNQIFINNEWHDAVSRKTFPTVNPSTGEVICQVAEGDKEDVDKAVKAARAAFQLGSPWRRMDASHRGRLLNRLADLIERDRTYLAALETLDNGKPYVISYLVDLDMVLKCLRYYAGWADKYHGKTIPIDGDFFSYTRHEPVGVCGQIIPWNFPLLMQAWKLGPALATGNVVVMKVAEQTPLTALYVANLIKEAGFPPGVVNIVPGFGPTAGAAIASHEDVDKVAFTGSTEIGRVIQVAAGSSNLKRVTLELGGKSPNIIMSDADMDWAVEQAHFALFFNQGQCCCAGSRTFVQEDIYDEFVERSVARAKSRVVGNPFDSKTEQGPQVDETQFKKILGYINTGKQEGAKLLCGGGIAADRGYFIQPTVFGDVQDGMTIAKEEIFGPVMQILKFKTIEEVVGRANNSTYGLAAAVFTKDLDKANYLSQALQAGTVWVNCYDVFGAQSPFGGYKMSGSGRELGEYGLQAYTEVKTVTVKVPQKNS
UniProt O00519, whole entry: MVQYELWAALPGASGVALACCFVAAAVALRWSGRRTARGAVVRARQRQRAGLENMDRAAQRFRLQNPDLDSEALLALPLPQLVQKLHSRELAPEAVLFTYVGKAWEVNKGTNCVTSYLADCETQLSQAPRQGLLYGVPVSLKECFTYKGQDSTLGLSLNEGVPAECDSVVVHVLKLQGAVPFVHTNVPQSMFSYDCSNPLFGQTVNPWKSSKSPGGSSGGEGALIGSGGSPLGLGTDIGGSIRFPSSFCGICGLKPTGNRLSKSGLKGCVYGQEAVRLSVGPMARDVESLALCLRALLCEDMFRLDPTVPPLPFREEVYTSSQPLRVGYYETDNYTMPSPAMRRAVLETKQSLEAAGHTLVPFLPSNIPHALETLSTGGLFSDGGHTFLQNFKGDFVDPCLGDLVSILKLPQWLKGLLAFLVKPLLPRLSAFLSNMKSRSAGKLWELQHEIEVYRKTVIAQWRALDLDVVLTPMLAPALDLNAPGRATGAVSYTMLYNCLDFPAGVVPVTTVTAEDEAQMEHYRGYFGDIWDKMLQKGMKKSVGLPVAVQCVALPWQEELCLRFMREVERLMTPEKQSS
UniProt Q99685, whole entry: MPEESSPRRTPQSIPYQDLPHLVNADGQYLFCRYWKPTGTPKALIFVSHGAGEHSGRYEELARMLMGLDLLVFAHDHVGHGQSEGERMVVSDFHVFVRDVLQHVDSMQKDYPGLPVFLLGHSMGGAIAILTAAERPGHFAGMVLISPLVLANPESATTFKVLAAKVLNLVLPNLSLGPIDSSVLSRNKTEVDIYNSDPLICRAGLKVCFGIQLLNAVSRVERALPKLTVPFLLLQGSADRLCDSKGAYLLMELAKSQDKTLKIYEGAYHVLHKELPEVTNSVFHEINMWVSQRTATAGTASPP

Assays:
Format in all cases: biochemical
ALDH1a1 = ALDH1a1 (Homo sapiens (Human), UniProt P00352); assay: ALDH assay (diaphorase/resazurin), ALDH1a1 inhibition
ALDH2 = ALDH2 (Homo sapiens (Human), UniProt P05091); assay: ALDH assay (diaphorase/resazurin), ALDH2 inhibition; details: Table I; mean of at least two independent experiments
human FAAH (hFAAH) = human FAAH (hFAAH) (Homo sapiens (Human), UniProt O00519); assay: FAAH enzyme inhibition assay (Cayman screening kit, AMC-arachidonoyl amide); details: for IC50 (μM) ± SE (hFAAH): Table II, average of at least two different experiments
human MAGL (hMAGL) = human MAGL (hMAGL) (Homo sapiens (Human), UniProt Q99685); assay: MAGL enzyme inhibition assay (4-nitrophenylacetate); details: relative to disulfiram / unsubstituted analogue

SMILES	IC50 (ALDH1a1; read-out: IC50 (μM) ± SE (ALDH1a1), Table I, mean of at least two independent experiments) [µM]	ALDH1a1 inhibitory activity (in words) (ALDH1a1)	IC50 (μM) ± SE (ALDH2) (ALDH2)	FAAH inhibitory activity (in words) (human FAAH (hFAAH))	IC50 (μM) ± SE (hFAAH) (human FAAH (hFAAH))	fold decrease in MAGL inhibitory activity (human MAGL (hMAGL))
S=C(SSC(=S)N1CCCCC1)N1CCCCC1	0.06					
S=C(SSC(=S)N(Cc1ccccc1)Cc1ccccc1)N(Cc1ccccc1)Cc1ccccc1		complete loss of activity	NI	complete loss of FAAH inhibitory activity	NI	
CCCCN(CCCC)C(=S)SSC(=S)N(CCCC)CCCC				no inhibition of FAAH	NI	up to 15 fold
